Source: patent publication US6936628B2, “Oral administration of epothilones” (Bristol-Myers Squibb Company, priority 2002, dated 2005)

System: Caco-2 monolayers
Details: Caco-2, reference compounds

`CCCC(=O)Nc1ccc(OCC(O)CNC(C)C)c(C(C)=O)c1` (stereo not shown) [acebutalol] showed a Pc of 4.8 ×10⁻⁶ cm/s.
